Source: patent US20250354133A1, “SIALIDASE FUSION MOLECULES AND RELATED USES” (The Scripps Research Institute, priority 2022, published 2025)

Target: CD19 (human) (UniProt P15391)
Assay: cell-based or functional assay

“Blinatumomab-sialidase fusion (CD19 BiTE-sialidase) (bispecific antibody)” gave an EC50 of dose-dependent killing of Raji cells, effector:target 10:1 of 0.8 pM and an EC50 of killing of Raji cells, fold lower than Blinatumomab (CD19 BiTE) of 5 fold lower.
